# Assay results published in US20240109917A1 (ACTELION PHARMACEUTICALS LTD, priority 2020, published 2024).
# Amino acid sequences for entries named in this document (tags omitted). A change or cut given only in a name is not applied to a line headed by its entry.
# UniProt P09619: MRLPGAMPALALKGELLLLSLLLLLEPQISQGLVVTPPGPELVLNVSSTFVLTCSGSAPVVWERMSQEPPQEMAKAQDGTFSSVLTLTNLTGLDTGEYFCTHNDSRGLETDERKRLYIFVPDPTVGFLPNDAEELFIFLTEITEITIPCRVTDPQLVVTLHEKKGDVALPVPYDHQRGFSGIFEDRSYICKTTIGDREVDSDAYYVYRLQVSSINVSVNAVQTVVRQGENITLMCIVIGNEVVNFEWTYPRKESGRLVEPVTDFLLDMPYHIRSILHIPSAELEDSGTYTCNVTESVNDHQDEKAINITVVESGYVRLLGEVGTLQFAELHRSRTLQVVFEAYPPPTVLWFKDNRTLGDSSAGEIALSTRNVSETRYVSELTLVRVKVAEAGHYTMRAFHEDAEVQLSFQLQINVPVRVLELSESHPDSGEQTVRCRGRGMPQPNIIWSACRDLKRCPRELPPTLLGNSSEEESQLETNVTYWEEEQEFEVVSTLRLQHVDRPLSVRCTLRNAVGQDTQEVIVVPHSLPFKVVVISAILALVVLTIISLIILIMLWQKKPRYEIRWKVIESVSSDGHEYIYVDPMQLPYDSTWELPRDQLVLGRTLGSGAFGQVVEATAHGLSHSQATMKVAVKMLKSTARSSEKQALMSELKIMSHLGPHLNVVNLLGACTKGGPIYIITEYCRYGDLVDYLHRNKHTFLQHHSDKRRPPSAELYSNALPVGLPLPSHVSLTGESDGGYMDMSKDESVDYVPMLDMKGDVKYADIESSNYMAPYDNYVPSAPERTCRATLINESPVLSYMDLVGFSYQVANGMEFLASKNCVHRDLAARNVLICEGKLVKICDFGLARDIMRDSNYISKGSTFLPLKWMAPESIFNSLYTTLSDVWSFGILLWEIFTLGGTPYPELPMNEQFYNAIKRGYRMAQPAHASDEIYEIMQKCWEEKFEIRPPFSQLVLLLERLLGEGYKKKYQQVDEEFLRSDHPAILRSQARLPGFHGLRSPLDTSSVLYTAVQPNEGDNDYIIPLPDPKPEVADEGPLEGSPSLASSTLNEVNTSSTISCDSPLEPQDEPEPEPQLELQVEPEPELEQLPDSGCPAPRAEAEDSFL
# Biological target: His6-TEV-PDGFRβ (557-1016) (Homo sapiens (Human), UniProt P09619)
# Experiment: PDGFRβ HTRF Assay
# Assay type: biochemical
# Conditions: read-out: PDGFR HTRF IC50
# Procedure: Instrumentation: a. Compound liquid handling: LabCyte Echo; b. Reagent liquid handling: Thermo Scientific Multidrop Combi; c. BMG PHERAStar multilabel plate reader.
# Protein Reagent: His6-TEV-PDGFRβ Protein Prep prepared at Accelagen.
# II. Methods and Procedures
# Assay buffer stock solution, contains 50 mM Hepes, 10 mM MgCl2, 1 mM EGTA, and 0.01% Brij-35, 0.01% ovalbumin, 2 mM DTT at pH 7.5, in molecular biology grade water. Store at room temperature.
# DTT, 2 M in molecular biology grade water, store at −20° C. in aliquots.
# Ovalbumin, 10% or 100 mg/mL, prepare fresh on experimental day.
# PDGFRβ, 116 μM (PDGFRb_08 Prep 02), produced at Accelagen. Store at −80° C. in aliquots.
# TK-biotin peptide, […] in molecular biology grade water, store at −20° C. in aliquots.
# ATP, 100 mM in molecular biology grade water, store at −20° C. in aliquots.
# HTRF KinEASE-TK kit: Allow the contents of the Cisbio kit to warm up to room temperature before use. This kit contains HTRF detection buffer, TK-Antibody labeled with Eu^3+-cryptate, TK-substrate biotin and Streptavidin-XL665.
# TK Substrate-Biotin, reconstitute 500 μg lyopholized with 574 μL molecular biology grade water to prepare a 500 μM stock; After use, aliquot the rest and store at −20° C.
# TK Antibody-Cryptate, reconstitute lyophilized with 1 mL of molecular biology grade water (100× solution) then add 99 mL detection buffer to prepare a ready to use TK-antibody-cryptate solution; the concentration of the TK-antibody-cryptate reagent is not known. After use, aliquot the rest and store at −20° C.
# Streptavidin-XL665, reconstitute 3 mg lyophilized with 3 mL molecular biology grade water to prepare a 1 mg/mL or 16.67 μM stock; MW=60 kDa; After use, aliquot the rest and store at −20° C.
# Freshly Prepared Solutions:
# Assay buffer. Dilute 5× Kinase buffer 5-fold with molecular biology grade water and add DTT to 2 mM and ovalbumin to 0.1 mg/mL (or 0.01%).
# 2× protein solution. Make a working solution of […] PDGFRβ in assay buffer. Keep on ice until use to maintain enzyme stability.
# 2× substrate solution. Make a working solution of 1.6 mM ATP and 1 μM TK-substrate biotin peptide in assay buffer.
# 3× quench/detection solution. Make a working solution of 0.1875 μM SA-XL665 and the TK-antibody cryptate diluted by 12 of total quench/detection volume in assay buffer.
# Keep final streptavidin/biotin ratio at 1 to 8.
# Example of 3× quench/detection solution preparation: 8 mL total volume.
# TK antibody-cryptate in detection buffer—4000 μL […]
# Step 3. […] Read the plate in PHERAstar (or similar instrument) on HTRF setting at excitation 337 nm—dual emission—665/620 nm ratio. […]
# HTRF ratio values calculated by the instrument (Ratio is acceptor counts/donor counts*10,000) is exported from the plate reader and used in data analysis. […]
row,Compound,IC50
1,"COc1ncccc1-c1cn2ncc(C(=O)Nc3cc(NC(=O)CN4CC(OC)C4)cnc3C)c2s1 [Example 400, N-(5-(2-(3-methoxyazetidin-1-yl)acetamido)-2-methylpyridin-3-yl)-2-(2-methoxypyridin-3-yl)pyrazolo[5,1-b]thiazole-7-carboxamide]",400 pM
2,"Cc1ncc(NC(=O)CN2CCC[C@H]2C)cc1NC(=O)c1cnn2cc(-c3cn(C)nc3C)sc12 [Example 440, (R)-2-(1,3-dimethyl-1H-pyrazol-4-yl)-N-(2-methyl-5-(2-(2-methylpyrrolidin-1-yl)acetamido)pyridin-3-yl)pyrazolo[5,1-b]thiazole-7-carboxamide]",400 pM
3,"COC1CCN(CC(=O)Nc2cnc(C)c(NC(=O)c3cnn4cc(-c5cn(C)nc5C)sc34)c2)C1 (stereo not shown) [Example 439, 2-(1,3-Dimethyl-1H-pyrazol-4-yl)-N-(5-(2-(3-methoxypyrrolidin-1-yl)acetamido)-2-methylpyridin-3-yl)pyrazolo[5,1-b]thiazole-7-carboxamide]",400 pM
4,"Cc1ncc(NC(=O)CN2CCC[C@@H]2C)cc1NC(=O)c1cnn2cc(-c3cn(C)nc3C)sc12 [Example 438, (S)-2-(1,3-dimethyl-1H-pyrazol-4-yl)-N-(2-methyl-5-(2-(2-methylpyrrolidin-1-yl)acetamido)pyridin-3-yl)pyrazolo[5,1-b]thiazole-7-carboxamide]",400 pM
